{"sequences": {"note": "The chains behind the UniProt entries cited, without tags or fusion partners. Where a name states a change or a piece, a line headed by the entry shows the natural chain unless it says otherwise.", "UniProt A0R2W9": "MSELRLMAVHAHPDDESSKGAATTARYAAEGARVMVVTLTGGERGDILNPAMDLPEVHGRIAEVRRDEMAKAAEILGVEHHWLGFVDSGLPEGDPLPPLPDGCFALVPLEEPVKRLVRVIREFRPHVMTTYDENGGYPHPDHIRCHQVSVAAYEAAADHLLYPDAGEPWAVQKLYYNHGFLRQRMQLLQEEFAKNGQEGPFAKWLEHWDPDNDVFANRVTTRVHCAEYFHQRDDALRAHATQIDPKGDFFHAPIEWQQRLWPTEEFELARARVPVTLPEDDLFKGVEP"}, "source": "patent US20050124021A1", "about": "(priority 2000, published 2005)", "key": {"[1]": {"test_system": "deacetylase activity of M. smegmatis mc^2155 extract", "assay": "Deacetylase activity (GlcN-Ins production) in centrifuged cell extracts, strain mc^2155", "conditions": "100 μM GlcNAc-Ins added"}, "[2]": {"test_system": "MSH-deficient strain 49 (M. smegmatis)", "assay": "Concentration dependence of GlcNAc-Ins uptake and use for MSH synthesis", "conditions": "23 hr, 37° C."}, "[3]": {"target": "mycothiol S-conjugate amidase (Mycolicibacterium smegmatis, UniProt A0R2W9)", "assay": "Test of purified mycothiol S-conjugate amidase for deacetylase activity", "conditions": "100 μM substrate, n=4"}, "[4]": {"test_system": "M. smegmatis mutant 49", "assay": "Time course of MSH and precursors in mutant 49 cultured with supplements", "type": "cell-based", "conditions": "17 μM GlcNAc-Ins"}, "[5]": {"test_system": "deacetylase activity of M. smegmatis mutant 49 extract", "assay": "Deacetylase activity (GlcN-Ins production) in centrifuged cell extracts, mutant 49", "conditions": "100 μM GlcNAc-Ins added"}, "[6]": {"conditions": "4 μM GlcNAc-Ins in Middlebrook 7H9 medium"}, "[7]": {"conditions": "8 μM GlcNAc-Ins in Middlebrook 7H9 medium"}, "[8]": {"conditions": "21 μM GlcNAc-Ins in Middlebrook 7H9 medium"}}}
{"substance": "N-acetyl-1-D-myo-inosityl-2-amino-2-deoxy-α-D-glucopyranoside", "values": [{"measurement": "Net rate increase of GlcN-Ins production over background", "setting": "[1]", "result": "13.6±0.5 pmol min^−1 mg of protein^−1"}, {"measurement": "GlcN-Ins content of cells", "setting": "[2]; [6]", "result": "<0.02 μmol [g of RDW]^−1"}, {"measurement": "GlcNAc-Ins content of cells", "setting": "[2]; [6]", "result": "0.39 μmol [g of RDW]^−1"}, {"measurement": "MSH content of cells", "setting": "[2]; [6]", "result": "0.47 μmol [g of RDW]^−1"}, {"measurement": "GlcN-Ins content of cells", "setting": "[2]; [7]", "result": "0.026 μmol [g of RDW]^−1"}, {"measurement": "GlcNAc-Ins content of cells", "setting": "[2]; [7]", "result": "0.80 μmol [g of RDW]^−1"}, {"measurement": "MSH content of cells", "setting": "[2]; [7]", "result": "0.91 μmol [g of RDW]^−1"}, {"measurement": "GlcN-Ins content of cells", "setting": "[2]; [8]", "result": "0.047 μmol [g of RDW]^−1"}, {"measurement": "GlcNAc-Ins content of cells", "setting": "[2]; [8]", "result": "1.4 μmol [g of RDW]^−1"}, {"measurement": "MSH content of cells", "setting": "[2]; [8]", "result": "2.1 μmol [g of RDW]^−1"}, {"measurement": "Activity with GlcNAc-Ins as substrate", "setting": "[3]", "result": "< 1 nmol min^−1 mg of protein^−1"}, {"measurement": "Level of GlcN-Ins in cells", "setting": "[4]; 2 hr", "result": "0.025 μmole per gm of residual dry weight"}, {"measurement": "MSH content, fold less than the GlcNAc-Ins content", "setting": "[4]; 2 hr", "result": "about 10 fold"}, {"measurement": "Concentration of GlcNAc-Ins in cells from the supplemented medium", "setting": "[4]; 48 hours", "result": "more than 100 fold"}, {"measurement": "Level of GlcN-Ins in cells", "setting": "[4]; 48 hr", "result": "0.1 μmole per gm of residual dry weight"}, {"measurement": "MSH level relative to that measured for the parent strain", "setting": "[4]; 48 hr", "result": "about 60%"}, {"measurement": "GlcNAc-Ins content of cells", "setting": "[4]; first measurement (2 hr)", "result": "2.9 μmole per gm of residual dry weight"}, {"measurement": "Cysteine level of cells", "setting": "[4]; unchanged over the experiment", "result": "0.36±0.08 μmol per gm of residual dry weight"}, {"measurement": "Rate of GlcN-Ins production", "setting": "[5]", "result": "16.4±1.4 pmol min^−1 mg of protein^−1"}]}
